Data published in US10202345B2, “Substituted azaspiro(4.5)decane derivatives” (priority 2014, dated 2019).

Sequences of proteins named here, by UniProt entry; tags and fusion partners are left off.
UniProt P35372, whole entry: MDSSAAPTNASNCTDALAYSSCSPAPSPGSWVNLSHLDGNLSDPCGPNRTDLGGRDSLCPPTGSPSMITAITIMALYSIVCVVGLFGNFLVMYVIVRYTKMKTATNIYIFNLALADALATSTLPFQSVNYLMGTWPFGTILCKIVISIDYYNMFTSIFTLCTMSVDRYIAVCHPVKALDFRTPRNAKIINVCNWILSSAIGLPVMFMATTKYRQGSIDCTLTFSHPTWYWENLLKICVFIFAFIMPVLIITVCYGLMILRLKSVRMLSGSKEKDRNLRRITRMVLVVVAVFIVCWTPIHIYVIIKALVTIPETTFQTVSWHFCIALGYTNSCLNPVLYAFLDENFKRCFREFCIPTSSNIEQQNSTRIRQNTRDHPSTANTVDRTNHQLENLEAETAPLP
UniProt P41146, whole entry: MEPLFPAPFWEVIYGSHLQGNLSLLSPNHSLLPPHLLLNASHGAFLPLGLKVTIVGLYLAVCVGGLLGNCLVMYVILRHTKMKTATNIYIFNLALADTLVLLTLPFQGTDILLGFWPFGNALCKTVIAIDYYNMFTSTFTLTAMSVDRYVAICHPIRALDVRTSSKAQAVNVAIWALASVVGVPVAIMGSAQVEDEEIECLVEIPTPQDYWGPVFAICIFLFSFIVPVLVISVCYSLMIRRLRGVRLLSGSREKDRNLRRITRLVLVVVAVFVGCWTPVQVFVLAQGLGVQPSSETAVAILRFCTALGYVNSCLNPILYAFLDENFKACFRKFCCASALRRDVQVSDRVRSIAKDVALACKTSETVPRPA

Tests used:
human μ opiate receptor = human μ opiate receptor (Homo sapiens, UniProt P35372); assay: μ opiate receptor binding assay with [3H]-naloxone (WGA-SPA beads)
ORL1 receptor = ORL1 receptor (Homo sapiens, UniProt P41146); assay: ORL1 receptor binding assay with 3H-nociceptin/orphanin FQ (WGA-SPA beads)
rats [1] = assay: Chung model: mononeuropathy pain following spinal nerve ligation (mechanical allodynia, von Frey)
rats [2] = assay: Analgesia in the tail flick (focal ray) test in rats, intravenous administration

In the case of CN(C)C1(c2cccs2)CCC2(CC1)CC(=O)N(CCC1COC1)C2 (single isomer, unassigned) [142], the Ki (human μ opiate receptor; read-out: Ki (μ) mean [μm], mean) is reported as 7.4 nM, the “% inhibition (μ) [1 μM]” value (human μ opiate receptor; test concentration 1 μM, 1 µM) is reported as 94% and the Ki (ORL1 receptor; read-out: Ki (ORL1) mean, mean) is reported as 5.75 nM. The “% inhibition (ORL1) [1 μM]” value (ORL1 receptor; test concentration 1 μM, 1 µM) was 85%, the “SNL rat, i.v. ED50 rat [μg/kg]” value (rats [1]) was 96 µg/kg and the “Tail flick rat, i.v. ED50 rat [μg/kg]” value (rats [2]) was 126 µg/kg.
